Measured affinities in a library of Ab-95 light chain variants

Reference: Engelhart et al. 2022, doi:10.1038/s41597-022-01779-4. File: FLAb, binding data.

Target: peptide PDVDLGDISGINAS, taken from heptad repeat 2 (HR2) of SARS-CoV-2 spike.

Parent scFv Ab-95: VH joined to VL by the linker GGGGSGGGGSGGGGS. Changes lie in the light chain CDRs alone.
VH: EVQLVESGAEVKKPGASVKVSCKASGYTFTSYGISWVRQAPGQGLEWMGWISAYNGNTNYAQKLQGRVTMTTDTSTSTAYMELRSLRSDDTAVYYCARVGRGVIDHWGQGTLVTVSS
VL: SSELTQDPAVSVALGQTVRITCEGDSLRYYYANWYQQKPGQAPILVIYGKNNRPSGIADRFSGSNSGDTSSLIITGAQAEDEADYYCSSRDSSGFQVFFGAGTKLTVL

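Phage display of a naive human antibody library on the peptide gave the parent. AAYL52 was designed without a model: most single CDR substitutions and a random sample of double and triple ones. The assay is AlphaSeq: two haploid yeast populations carry antibody and antigen on their surface. After mating in shaken culture at 30 °C for 16 h, diploids were selected and their barcode pairs sequenced. Each replicate has its own calibration line, from reference interactions of the BCL2 family. Each pool was mated in three replicate cultures.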

Changes read parent residue, position, new residue, counted from the first residue of the VL shown. Every variant below is changed at D91 of the VL (sequential numbering). Values are apparent Kd, the geometric mean of the replicates that gave a signal; lower means stronger binding. "nd" means that the variant was in the library but no mating with the target was seen in any replicate; the authors take this as a sign of poor binding, and no number exists. Order: sorted from the lowest average up, undetected variants last.

The variant R90V D91G G94M gave 59 nM (3 of 3 replicates; controls 2 of 9).
The variant E23H D91F S92H gave 60 nM (3 of 3 replicates; controls 1 of 9).
The variant R28K Y29H D91P gave 77 nM (3 of 3 replicates; controls 5 of 9).
The variant L27Y Y30N D91I gave 81 nM (3 of 3 replicates; controls 3 of 9).
The variant K50D N51G D91A gave 82 nM (3 of 3 replicates; controls 3 of 9).
The variant S89L R90K D91C gave 87 nM (3 of 3 replicates; controls 2 of 9).
The variant D91W S93A V97S gave 100 nM (3 of 3 replicates; controls 1 of 9).
The variant D91Y G94F V97G gave 280 nM (3 of 3 replicates; controls 2 of 9).
The variant R28T S89G D91S gave 280 nM (3 of 3 replicates; controls 2 of 9).
The variant Y31S N52Q D91F gave 290 nM (3 of 3 replicates; controls 6 of 9).
The variant D91Q F95S gave 390 nM (3 of 3 replicates; controls 6 of 9).
The variant R90D D91Q gave 470 nM (3 of 3 replicates; controls 1 of 9).
The variant P54S D91Q gave 500 nM (3 of 3 replicates; controls 4 of 9).
The variant K50Q D91Q gave 710 nM (3 of 3 replicates; controls 0 of 9).
The variant P54S D91C F98Q gave 710 nM (3 of 3 replicates; controls 4 of 9).
The variant R28L Y31F D91W gave 790 nM (3 of 3 replicates; controls 1 of 9).
The variant Y30Q S89M D91Y gave 1.1 µM (3 of 3 replicates; controls 3 of 9).
The variant D91A S92A gave 1.2 µM (3 of 3 replicates; controls 1 of 9).
The variant R53F D91I F95M gave 1.4 µM (1 of 3 replicates; controls 3 of 9).
The variant Y31K S89R D91G gave 2.3 µM (1 of 3 replicates; controls 1 of 9).
The variant D25K D91G gave 2.5 µM (3 of 3 replicates; controls 4 of 9).
The variant E23Y G24A D91A gave 2.5 µM (3 of 3 replicates; controls 5 of 9).
The variant N52M D91R G94Q gave 2.5 µM (3 of 3 replicates; controls 5 of 9).
The variant N33R D91P F95S gave 2.9 µM (2 of 3 replicates; controls 1 of 9).
The variant N33V D91E F98S gave 3.3 µM (3 of 3 replicates; controls 3 of 9).
The variant S89Q D91S F95I gave 4.2 µM (3 of 3 replicates; controls 6 of 9).
The variant S55V S89G D91W gave 5.0 µM (1 of 3 replicates; controls 0 of 9).
The variant N33S D91F gave 5.3 µM (3 of 3 replicates; controls 3 of 9).
The variant E23G R53C D91E gave 6.4 µM (2 of 3 replicates; controls 3 of 9).
The variant A32H K50R D91N gave 6.5 µM (3 of 3 replicates; controls 4 of 9).
The variant Y30F A32E D91S gave 10 µM (2 of 3 replicates; controls 7 of 9).
The variant R53L S88A D91K gave 11 µM (2 of 3 replicates; controls 2 of 9).
The variant G24N R53Q D91F gave 14 µM (2 of 3 replicates; controls 2 of 9).
The variant K50M D91Q S92I gave 130 µM (1 of 3 replicates; controls 2 of 9).
The variant S88P D91R S92C gave 190 µM (1 of 3 replicates; controls 1 of 9).
The variant P54N S89F D91A gave 900 µM (1 of 3 replicates; controls 2 of 9).
The variant D91C V97I gave nd (0 of 3 replicates; controls 4 of 9).
The variant P54Y S88P D91E gave nd (0 of 3 replicates; controls 2 of 9).
The variant E23C R28I D91V gave nd (0 of 3 replicates; controls 3 of 9).
The variant E23A P54Q D91E gave nd (0 of 3 replicates; controls 2 of 9).
The variant D91T G94P gave nd (0 of 3 replicates; controls 0 of 9).
The variant S89N D91M gave nd (0 of 3 replicates; controls 1 of 9).
The variant S55C D91M Q96G gave nd (0 of 3 replicates; controls 1 of 9).
The variant N51T S88T D91V gave nd (0 of 3 replicates; controls 3 of 9).
The variant G49R N51M D91P gave nd (0 of 3 replicates; controls 2 of 9).
The variant K50W D91M S93I gave nd (0 of 3 replicates; controls 2 of 9).
The variant Y31A R90G D91T gave nd (0 of 3 replicates; controls 1 of 9).

For reference, 4 entries of the list once more:

| changes | apparent Kd | replicates with signal | signal with controls |
|---|---|---|---|
| A32H K50R D91N | 6.5 µM | 3 of 3 | 4 of 9 |
| P54S D91C F98Q | 710 nM | 3 of 3 | 4 of 9 |
| E23Y G24A D91A | 2.5 µM | 3 of 3 | 5 of 9 |
| N51T S88T D91V | nd | 0 of 3 | 3 of 9 |

In this assay the parent's reference entry averaged 200 nM; its copy inside this library read 180 nM. As a blank, each scFv also met three strains without target: over library AAYL52, 28% of these pairings were detected, typically at 8.2 µM and seldom below 800 nM. For each scFv, signals with the empty controls are counted beside the result.